According to patent US5814612A, “Retinol derivatives and uses thereof” (priority 1992, dated 1998):
Entries after “also recorded” stand apart in the source; their conditions may differ.

Tested on: thymocytes
Experiment: Proliferation of anti-CD3 activated thymocytes in serum-free ITLB medium
Type: cell-based, BALB/c mouse
Description: FIG. 14A: Purified BALB/c thymocytes were activated with immobilized anti-CD3e antibody and cultivated for four days in ITLB medium with or without retinol (3×10^-6 M), 14HRR (6×10^-7 M) (fresh 14HRR was added every 12 hours), human serum (3%) or FCS (10%) at the cellular densities shown. Proliferation was assayed by tritiated thymidine incorporation into cellular DNA. The SDs were below 20%.
FIG. 14B: BALB/c thymocytes (10^6 /ml) were added to microtiter plates coated with titrated amounts of anti-CD3e antibody with […] retinol or without, as indicated. Proliferation was measured in hexaduplicate wells on day 3 by ^3 H thymidine incorporation assay.
Purified thymocytes (5×10^5 cells/well) were stimulated by TCR crosslinking with immobilized anti-CD3e antibody (FIG. 15A) or 0.4 μg/ml Con A (FIG. 15B) in serum-free ITLB medium. The indicated amounts of retinoids were added either once at the beginning of the experiment (marked as "1×") or every 12 hours thereafter (marked as "6×"). DNA synthesis was measured after 72 hours by tritiated thymidine uptake as described.
Purified thymocytes (10^5 cells/well) were activated with anti-CD3 antibody in ITLB medium with or without retinol (3×10^-6 M), 14HRR (6×10^-7, added every 12 hours or human serum (3%)). DNA synthesis was measured daily by a 4 hour pulse of tritiated thymidine. SDs were ≤12%.
Thymocytes (5×10^4 /well) were activated by immobilized anti-CD3 mAb in medium ITLB. […]
Thymuses of 3 to 6-week-old BALB/c mice were teased in serum-free RPMI medium supplemented with 1% BSA, 10^-6 M linoleic acid and antibiotics. […] Cell viability was evaluated by trypan blue dye exclusion. To determine the extent of depletion of accessory cells, samples were stained with FITC-conjugated anti-Fc receptor antibody and analyzed by flow cytometry on a FACScan instrument (Becton Dickinson). No FcR-bearing cells were detected by this procedure. […]

Substance: IL-2: hrIL-2
- ability of cytokine to replace retinol (absence of retinol): None of the four interleukins, IL-1, IL-2, IL-4 or IL-6, was capable of overcoming the requirement for retinal; also recorded: none of the interleukins tested (IL-1, IL-2, IL-4 and IL-6) nor TNF-alpha are substitutes for retinol
- growth-stimulating effect, anti-CD3, no Retinol (no retinol, 3 days, IL-1 10, IL-2 2, IL-4 5, IL-6 5, IFN-gamma 40, TNF-alpha 12, IL-2 + IL-4 2/5 U/ml): 458 ± 156 CPM
- growth-stimulating effect, anti-CD3, 10^-6 M Retinol (with 10^-6 M retinol (head), 3 days, IL-1 10, IL-2 2, IL-4 5, IL-6 5, IFN-gamma 40, TNF-alpha 12, IL-2 + IL-4 2/5 U/ml, Retinol: stimulating agent none): 77,343 ± 11,739 CPM
